# Laboratory results as given in patent publication US12473270B2, “CB1R receptor blockers with acyclic backbones” (YISSUM RESEARCH DEVELOPMENT COMPANY OF THE HEBREW …, priority 2019, dated 2025).
# By UniProt entry, the sequences of proteins in these tests, tags left out.
# UniProt P47746, whole entry: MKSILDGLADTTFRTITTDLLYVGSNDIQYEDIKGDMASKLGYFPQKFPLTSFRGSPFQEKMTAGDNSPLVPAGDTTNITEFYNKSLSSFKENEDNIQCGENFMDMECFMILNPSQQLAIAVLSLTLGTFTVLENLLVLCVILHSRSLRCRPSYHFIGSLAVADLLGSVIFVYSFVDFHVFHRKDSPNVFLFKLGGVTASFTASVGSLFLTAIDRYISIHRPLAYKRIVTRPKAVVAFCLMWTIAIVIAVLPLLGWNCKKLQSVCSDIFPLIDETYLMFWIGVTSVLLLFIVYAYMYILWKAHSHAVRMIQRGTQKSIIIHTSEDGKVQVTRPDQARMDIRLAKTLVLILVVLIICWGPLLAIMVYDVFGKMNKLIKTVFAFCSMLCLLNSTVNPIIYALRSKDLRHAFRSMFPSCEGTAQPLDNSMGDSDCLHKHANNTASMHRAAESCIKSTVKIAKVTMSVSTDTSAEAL
# Target: T1, CB1 receptor (Mus musculus, UniProt P47746)
# T1 construct: crude membranes from mouse brain for CB1 receptor; from tissue; host or cells: mouse brain membranes (crude / P2)
# Assay: [35S]GTPγS binding in mouse brain membranes
# Type: biochemical
# Settings: compound alone
# Protocol: [^35S]GTPγS binding. Mouse brains were dissected and P2 membranes prepared and resuspended at ˜6 μg protein/μL in 1 ml assay buffer (50 mM Tris HCl, 9 mM MgCl2, 0.2 mM EGTA, 150 mM NaCl; pH 7.4). […] Briefly, membranes (10 μg protein) were incubated in assay buffer containing 100 μM GDP, 0.05 nM [^35S]GTPγS, test compounds at 1 nM-1 μM, and 1.4 mg/mL fatty acid-free BSA in siliconized glass tubes. Bound ligand was separated from free by vacuum filtration. Non-specific binding was determined using 10 μM GTPS. Basal binding was assayed in the absence of the ligand and in the presence of GDP.
smiles,measurement,value
"Cc1c(C(=O)NN2CCCCC2)nn(-c2ccc(Cl)cc2Cl)c1-c1ccc(Cl)cc1 [rimonabant, reference compound]",GTPγS binding in mouse brain membranes,reduces GTPγS binding
